Consider 24 compounds from PubChem BioAssay AID588511 (Johns Hopkins Ion Channel Center, 2011).

Amino acid sequences for entries named in this document (tags omitted).
UniProt Q8BHY3, whole entry: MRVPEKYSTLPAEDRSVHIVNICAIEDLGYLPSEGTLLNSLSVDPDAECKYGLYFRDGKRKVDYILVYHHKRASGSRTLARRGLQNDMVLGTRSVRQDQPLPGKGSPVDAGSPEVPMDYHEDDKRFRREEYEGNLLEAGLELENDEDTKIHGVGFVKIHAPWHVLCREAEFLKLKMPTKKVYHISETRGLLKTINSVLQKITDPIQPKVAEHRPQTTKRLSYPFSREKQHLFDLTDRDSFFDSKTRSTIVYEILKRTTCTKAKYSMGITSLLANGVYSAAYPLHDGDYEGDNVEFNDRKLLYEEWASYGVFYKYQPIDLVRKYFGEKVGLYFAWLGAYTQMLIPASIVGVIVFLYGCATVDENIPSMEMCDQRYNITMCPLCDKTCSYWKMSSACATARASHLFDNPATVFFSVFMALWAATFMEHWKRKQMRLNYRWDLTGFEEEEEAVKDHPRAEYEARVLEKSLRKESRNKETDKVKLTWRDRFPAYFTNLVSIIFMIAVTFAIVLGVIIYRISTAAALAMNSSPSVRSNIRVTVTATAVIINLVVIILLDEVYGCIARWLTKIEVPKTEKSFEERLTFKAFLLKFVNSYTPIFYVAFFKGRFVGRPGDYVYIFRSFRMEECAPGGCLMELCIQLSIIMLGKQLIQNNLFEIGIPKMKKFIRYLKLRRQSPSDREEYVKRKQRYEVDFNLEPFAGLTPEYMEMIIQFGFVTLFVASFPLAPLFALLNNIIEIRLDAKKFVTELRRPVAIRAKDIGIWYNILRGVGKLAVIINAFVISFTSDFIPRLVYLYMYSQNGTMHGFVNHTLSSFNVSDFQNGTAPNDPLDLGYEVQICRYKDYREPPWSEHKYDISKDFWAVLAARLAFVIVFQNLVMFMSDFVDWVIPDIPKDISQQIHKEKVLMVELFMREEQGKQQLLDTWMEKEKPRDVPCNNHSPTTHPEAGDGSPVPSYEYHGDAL

SMILES strings stand for the structures. The entries are a selection whose mix differs from that of the whole data set. Some tests of the compounds listed are not included; inactive here does not mean inactive elsewhere. The source made the active and inactive calls.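 How the source made its calls: active means ratio plate-corrected score three or more library SD toward inhibition, starting fluorescence score within five deviations; inactive means the rest.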

The experiment has as its target Anoctamin-1 (Mus musculus) (UniProt Q8BHY3). Description: blockers of mouse ANO1 Ca-activated Cl channel – cell-based, HTS, primary screen (AID 588511). The note with it: HEK293 TMEM16A/YFP iodide influx fluorescence, ionomycin; at 10 µM.
`CN(C)c1ccc(C(=O)NCC2(N(C)C)CCCCC2)cc1`: the outcome was inactive.

As to `CN(C)C1CCCC1OC(=O)C(O)(c1ccccc1)c1ccccc1` (centres undefined), the compound was classed as inactive.

As for `Cc1ccccc1C(=O)NCC1(N2CCCCC2)CCCCC1`, the outcome was inactive.

Regarding `O=C(NCC1(N2CCCCC2)CCCCC1)c1cc(F)c(F)cc1Cl`, the compound was classed as inactive.

On to `C=CCN1CCN(CCOC(=O)C(O)(c2ccccc2)c2ccccc2)CC1`, for which the outcome was inactive.

In the case of `COc1ccc(C(=O)NCC2(N(C)C)CCCCC2)cc1`, the call was inactive.

As to `O=C(NCC1(N2CCCCC2)CCCCC1)c1cccc(Br)c1`, the compound was classed as inactive.

For `CCN1CCCC(OC(=O)C2(O)c3ccccc3C=Cc3ccccc32)C1` (centres undefined), the call was inactive.

In the case of `Cc1cc(C(=O)NCC2(N3CCCCC3)CCCCC2)ccc1[N+](=O)[O-]`, the compound was classed as inactive.

Take `O=C(NCC1(N2CCCCC2)CCCCC1)c1cc([N+](=O)[O-])ccc1Cl`: the result was inactive.

In the case of `CN1[C@@H]2CC[C@H]1CC(OC(=O)C(O)(c1ccccc1)c1ccccc1)C2` (some centres undefined), the compound was classed as inactive.

Turning to `COc1cc(SC)ccc1C(=O)NCC1(N(C)C)CCCCC1`, the result was inactive.

As for `CCN(CC)CC(C)C(C)OC(=O)C(O)(c1ccccc1)c1ccccc1` (centres undefined), the result was inactive.

As to `CC(C)N1C(=O)CC2(CCN(CCOC(=O)C(O)(c3ccccc3)c3ccccc3)CC2)C1=O`, the compound was classed as inactive.

For `Cc1ccc(C(=O)NCC2(N3CCCCC3)CCCCC2)cc1`, the result was inactive.

Consider `O=C(OC1CN2CCC1CC2)C(CO)(c1ccccc1)c1ccccc1` (centres undefined), for which the compound was called inactive.

On to `COc1ccc(Br)c(C(=O)NCC2(N3CCCCC3)CCCCC2)c1`, for which the result was inactive.

Consider `CC(C)Oc1ccc(C(=O)NCC2(N(C)C)CCCCC2)cc1`, for which the call was inactive.

As to `CN(C)c1cccc(C(=O)NCC2(N(C)C)CCCCC2)c1`, the result was inactive.

Regarding `CN(C)C1(CNC(=O)c2ccc(Br)cc2)CCCCC1`, the compound was called inactive.

With `COc1cc(C(=O)NCC2(N(C)C)CCCCC2)c([N+](=O)[O-])cc1OC`, the outcome was inactive.

Regarding `COc1ccc(Cl)cc1C(=O)NCC1(N(C)C)CCCCC1`, the outcome was inactive.

For the compound `COc1cccc(C(=O)NCC2(N3CCCCC3)CCCCC2)c1`, the compound was classed as inactive.

Consider `O=C(NCC1(N2CCCCC2)CCCCC1)c1cccc(Cl)c1`, for which the call was inactive.
